Laboratory results reported in patent US8703199B2, “Pharmaceutical compositions of adsorbates of amorphous drug” (Bend Research, Inc., priority 2001, dated 2014).

Experiment: accelerated storage test of physical stability (PXRD)
Type: physicochemical
Conditions: stored for 1 week at 40° C./75% RH

For “quinoxaline-2-carboxylic acid [4(R)-carbamoyl-1(S)-3-fluorobenzyl)-2(S), 7-dihydroxy-7-methyl-octyl]amide [Control 1B]”, the “crystallization of drug on storage” value was “significant crystallization”.
